Measurements taken from US11407721B2, “CIS-morpholinone and other compounds as MDM2 inhibitors for the treatment of cancer” (AMGEN INC., priority 2013, dated 2022).

Protein sequences, listed by entry. Tags and fused reporters are not part of them. Residues count along the entry.
UniProt Q00987, 1-188 limits assumed: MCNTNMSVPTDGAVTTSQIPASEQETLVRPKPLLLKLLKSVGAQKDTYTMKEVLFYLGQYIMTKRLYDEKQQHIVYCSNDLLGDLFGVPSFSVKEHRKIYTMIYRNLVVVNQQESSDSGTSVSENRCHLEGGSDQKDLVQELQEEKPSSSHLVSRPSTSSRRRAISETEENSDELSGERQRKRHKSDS

Target: interaction between HDM2 and p53 (GST-hMDM2 (1-188) / biotinylated-p53 (1-83)) (Homo sapiens (Human), UniProt Q00987)
Assay: HTRF2 Assay (improved HTRF assay)
Assay type: binding
Details: read-out: HTRF2 IC50; 0.2 nM GST-hMDM2 (1-188), 0.5 nM biotinylated-p53 (1-83), 100 mM KF

| Structure (SMILES) | IC50 [µM] |
| --- | --- |
| O=C(C[C@H]1O[C@H](c2cccc(Cl)c2)[C@H](c2ccc(Cl)cc2)N(CC2CC2)C1=O)N1CCOCC1 (relative stereo) | 2.92 |
| CCC[C@@H](C(=O)N1CCN(C)CC1)N1C(=O)[C@@H](Cc2ccc(F)cc2)O[C@H](c2ccc(Cl)cc2)[C@@H]1c1ccc(Cl)cc1 (relative stereo) | 0.922 |
| CCC[C@H](C(=O)O)N1C(=O)[C@H](Cc2ccc(I)cc2)O[C@@H](c2ccc(Cl)cc2)[C@H]1c1ccc(Cl)cc1 (relative stereo) | 0.789 |
| CCC[C@H](CNS(C)(=O)=O)N1C(=O)CO[C@@H](c2ccc(Cl)cc2)[C@H]1c1ccc(Cl)cc1 (relative stereo) | 5.12 |
| C[C@]1(c2cccc(Cl)c2)O[C@H](CC(=O)O)C(=O)N(CC2CC2)[C@H]1c1ccc(Cl)cc1 (relative stereo) | 35.9 |
| COC(=O)c1ccc(C[C@H]2O[C@H](c3ccc(Cl)cc3)[C@H](c3ccc(Cl)cc3)N(C)C2=O)cc1 (relative stereo) | 6.14 |
| CCC[C@H](C(=O)O)N1C(=O)[C@H](Cc2ccc(F)cc2)O[C@@H](c2ccc(Cl)cc2Cl)[C@H]1c1ccc(Cl)cc1 (relative stereo) | 2.16 |
| CCC[C@H](C(=O)O)N1C(=O)[C@H](Cc2ccc(-c3ccccc3)cc2)O[C@@H](c2ccc(Cl)cc2)[C@H]1c1ccc(Cl)cc1 (relative stereo) | 1.44 |
| CCC[C@H](C(=O)O)N1C(=O)[C@@H](Cc2ccc(S(C)(=O)=O)cc2F)O[C@H](c2ccc(Cl)cc2)[C@@H]1c1ccc(Cl)cc1 (relative stereo) | 29.6 |
| CCC[C@H](CNC(=O)CC(=O)O)N1C(=O)[C@H](Cc2ccc(I)cc2)O[C@@H](c2ccc(Cl)cc2)[C@H]1c1ccc(Cl)cc1 (relative stereo) | 18.4 |
| O=C1[C@@H](Cc2ccc(F)cc2)O[C@@H](c2ccc(Cl)cc2)[C@@H](c2ccc(Cl)cc2)N1c1cccnc1 (relative stereo) | 79 |
| CCC[C@H](C(=O)O)N1C(=O)[C@H](Cc2ccc(F)cc2)O[C@@H](c2ccccc2)[C@H]1c1ccc(Cl)cc1 (relative stereo) | 1.47 |
| CC(C)CN1C(=O)CO[C@@H](c2cccc(Cl)c2)[C@H]1c1ccc(Cl)cc1 (relative stereo) | 8.75 |
| CCC[C@H](C(=O)O)N1C(=O)[C@H](Cc2ccc(Cl)cc2)O[C@@H](c2ccc(Cl)cc2)[C@H]1c1ccc(Cl)cc1 (relative stereo) | 1.26 |
| CCC[C@@H](c1nnn[nH]1)N1C(=O)[C@@H](Cc2ccc(C#N)cc2)O[C@H](c2ccc(Cl)cc2)[C@@H]1c1ccc(Cl)cc1 (relative stereo) | 0.415 |
| CCC[C@@H](C(=O)N1CCN(CC2CC2)CC1)N1C(=O)[C@@H](Cc2ccc(C#N)cc2)O[C@H](c2ccc(Cl)cc2)[C@@H]1c1ccc(Cl)cc1 (relative stereo) | 1.38 |
| CCC[C@H](C(=O)N(C)C)N1C(=O)CO[C@@H](c2ccc(Cl)cc2)[C@H]1c1ccc(Cl)cc1 (relative stereo) | 4.16 |
| CCCNC(=O)[C@@H](CCC)N1C(=O)CO[C@@H](c2ccc(Cl)cc2)[C@H]1c1ccc(Cl)cc1 (relative stereo) | 5 |
| O=C(O)[C@@H](c1ccccc1)N1C(=O)CO[C@@H](c2ccc(Cl)cc2)[C@H]1c1ccc(Cl)cc1 (relative stereo) | 26.6 |
| O=C(O)[C@@H](c1ccc(Cl)cc1)N1C(=O)[C@H](Cc2ccc(F)cc2)O[C@@H](c2ccc(Cl)cc2)[C@H]1c1ccc(Cl)cc1 (relative stereo) | 1.41 |
| CC(C)(O)CN1C(=O)CO[C@@H](c2cccc(Cl)c2)[C@H]1c1ccc(Cl)cc1 (relative stereo) | 14.5 |
| CCC[C@H](CNC(=O)Cc1nnn[nH]1)N1C(=O)CO[C@@H](c2ccc(Cl)cc2)[C@H]1c1ccc(Cl)cc1 (relative stereo) | 10.9 |

| Structure (SMILES) | IC50 [µM] |
| --- | --- |
| CCC[C@H](C(=O)O)N1C(=O)[C@@H](Cc2ccc(S(C)(=O)=O)cc2)O[C@H](c2ccc(Cl)cc2)[C@@H]1c1ccc(Cl)cc1 (relative stereo) | 3.75 |
| CCC[C@H](C(=O)N1CCC(C(=O)O)CC1)N1C(=O)CO[C@@H](c2ccc(Cl)cc2)[C@H]1c1ccc(Cl)cc1 (relative stereo) | 3.36 |
| CCC[C@H](C(=O)N(C)CCC(=O)O)N1C(=O)[C@H](Cc2ccc(F)cc2)O[C@@H](c2ccc(Cl)cc2)[C@H]1c1ccc(Cl)cc1 (relative stereo) | 0.498 |
| Cn1cnc(N2C(=O)[C@@H](Cc3ccc(F)cc3)O[C@H](c3ccc(Cl)cc3)[C@@H]2c2ccc(Cl)cc2)c1 (relative stereo) | 7.9 |
| CN1C(=O)[C@@H](Cc2ccccc2C#N)O[C@H](c2ccc(Cl)cc2)[C@@H]1c1ccc(Cl)cc1 (relative stereo) | 1.77 |
| CCC[C@H](C(=O)NCC(C)(C)C(=O)O)N1C(=O)[C@H](Cc2ccc(C#N)cc2)O[C@@H](c2ccc(Cl)cc2)[C@H]1c1ccc(Cl)cc1 (relative stereo) | 0.633 |
| CCC[C@H](C(N)=O)N1C(=O)[C@H](Cc2ccc(F)cc2)O[C@@H](c2ccc(Cl)c(F)c2)[C@H]1c1ccc(Cl)cc1 (relative stereo) | 2 |
| CCC[C@@H](c1nnn[nH]1)N1C(=O)[C@@H](Cc2ccc(F)cc2)O[C@H](c2ccc(Cl)cc2)[C@@H]1c1ccc(Cl)cc1 (relative stereo) | 1.33 |
| CC(C)=CC[C@H]1O[C@H](c2ccc(Br)cc2)[C@H](c2ccc(Br)cc2)N(C)C1=O (relative stereo) | 25 |
| CCC[C@@H](N1C(=O)CO[C@@H](c2ccc(Cl)cc2)[C@H]1c1ccc(Cl)cc1)C(C)(C)O (relative stereo) | 12.6 |
| CCC[C@H](C(=O)NO)N1C(=O)[C@H](Cc2ccc(I)cc2)O[C@@H](c2ccc(Cl)cc2)[C@H]1c1ccc(Cl)cc1 (relative stereo) | 1.66 |
| NC(=O)OCC[C@H]1O[C@H](c2cccc(Cl)c2)[C@H](c2ccc(Cl)cc2)N(CC2CC2)C1=O (relative stereo) | 2.25 |
| CCC[C@H](C(=O)NCCC(=O)O)N1C(=O)[C@@H](Cc2ccc(C#N)cc2)O[C@H](c2ccc(Cl)cc2)[C@@H]1c1ccc(Cl)cc1 (relative stereo) | 2.66 |
| CCC[C@H](C(=O)O)N1C(=O)CO[C@@](C)(c2ccc(Cl)cc2)[C@H]1c1ccc(Cl)cc1 (relative stereo) | 5.04 |
| CCC[C@H](C(=O)O)N1C(=O)[C@@H](Cc2ccc(F)cc2)O[C@H](c2cccc(Cl)c2)[C@@H]1c1ccc(Cl)cc1 (relative stereo) | 12.7 |
| CCC[C@@H](C(=O)N1CCOCC1)N1C(=O)[C@@H](Cc2ccc(F)cc2)O[C@H](c2ccc(Cl)cc2)[C@@H]1c1ccc(Cl)cc1 (relative stereo) | 1.05 |
| CCC[C@H](C(=O)N1CCN(CC(=O)O)CC1)N1C(=O)CO[C@@H](c2ccc(Cl)cc2)[C@H]1c1ccc(Cl)cc1 (relative stereo) | 4.82 |
| CCC[C@H](C(=O)NC)N1C(=O)CO[C@@H](c2ccc(Cl)cc2)[C@H]1c1ccc(Cl)cc1 (relative stereo) | 2.87 |
| CCC[C@H](CN1CCC(C(=O)O)CC1)N1C(=O)[C@H](Cc2ccc(F)cc2)O[C@@H](c2ccc(Cl)cc2)[C@H]1c1ccc(Cl)cc1 (relative stereo) | 2.12 |
| CCC[C@@H]1CN=C2CO[C@H](c3ccc(Cl)cc3)[C@H](c3ccc(Cl)cc3)N21 (relative stereo) | 39.9 |
| CCC[C@@H]1CN=C2CO[C@@H](c3ccc(Cl)cc3)[C@@H](c3ccc(Cl)cc3)N21 (relative stereo) | 11 |

More lines, now with the values ahead:

| IC50 [µM] | Structure (SMILES) |
| --- | --- |
| 6.15 | CCC[C@H](C(=O)N(C)CC(=O)O)N1C(=O)[C@H](Cc2ccc(F)cc2)O[C@@H](c2ccc(Cl)cc2)[C@H]1c1ccc(Cl)cc1 (relative stereo) |
| 28.9 | O=C(O)[C@@H](C1CC1)N1C(=O)CO[C@@H](c2cccc(Cl)c2)[C@H]1c1ccc(Cl)cc1 (relative stereo) |
| 7.67 | CCC[C@H](C(=O)O)N1C(=O)CO[C@@H](c2ccc(Cl)cc2C)[C@H]1c1ccc(Cl)cc1 (relative stereo) |
| 27.1 | COCCN1C(=O)CO[C@@H](c2cccc(Cl)c2)[C@H]1c1ccc(Cl)cc1 (relative stereo) |
| 3.71 | CCC[C@H](CNC(=O)CO)N1C(=O)CO[C@@H](c2ccc(Cl)cc2)[C@H]1c1ccc(Cl)cc1 (relative stereo) |
| 0.63 | CCC[C@H](C(=O)NCC(=O)O)N1C(=O)[C@H](Cc2ccc(C#N)cc2)O[C@@H](c2ccc(Cl)cc2)[C@H]1c1ccc(Cl)cc1 (relative stereo) |
| 16.8 | O=C(O)[C@@H](c1ccc(Cl)cc1)N1C(=O)CO[C@@H](c2ccc(Cl)cc2)[C@H]1c1ccc(Cl)cc1 (relative stereo) |
| 16.1 | CCC[C@H](C(=O)O)N1C(=O)CO[C@](C)(c2ccc(Cl)cc2)[C@@H]1c1ccc(Cl)cc1 (relative stereo) |
| 12.7 | CN1C(=O)[C@@H](Cc2ccc(CN)cc2)O[C@H](c2ccc(Cl)cc2)[C@@H]1c1ccc(Cl)cc1 (relative stereo) |
| 5 | CSc1nccc(N2C(=O)CO[C@@H](c3ccc(Cl)cc3)[C@H]2c2ccc(Cl)cc2)n1 (relative stereo) |
| 3.44 | CCC[C@H](C(=O)NCCO)N1C(=O)CO[C@@H](c2ccc(Cl)cc2)[C@H]1c1ccc(Cl)cc1 (relative stereo) |
| 7.44 | NC(=O)[C@@H](c1ccc(Cl)cc1)N1C(=O)CO[C@@H](c2ccc(Cl)cc2)[C@H]1c1ccc(Cl)cc1 (relative stereo) |
| 2.78 | CCC[C@H](C(N)=O)N1C(=O)CO[C@@H](c2cccc(Cl)c2)[C@H]1c1ccc(Cl)cc1 (relative stereo) |
| 7.12 | CCC[C@H](CNCC(=O)O)N1C(=O)CO[C@@H](c2ccc(Cl)cc2)[C@H]1c1ccc(Cl)cc1 (relative stereo) |
| 0.358 | CCC[C@H](C(=O)O)N1C(=O)[C@H](Cc2ccc(C#N)cc2)O[C@@H](c2ccc(Cl)cc2)[C@H]1c1ccc(Br)cc1 (relative stereo) |
| 0.428 | CCC[C@H](C(=O)NCCC(=O)O)N1C(=O)[C@H](Cc2ccc(C#N)cc2)O[C@@H](c2ccc(Cl)cc2)[C@H]1c1ccc(Cl)cc1 (relative stereo) |
| 5.05 | CCC[C@H](C(=O)NCC(=O)O)N1C(=O)CO[C@@H](c2ccc(Cl)cc2)[C@H]1c1ccc(Cl)cc1 (relative stereo) |
| 0.465 | CCC[C@H](C(=O)O)N1C(=O)[C@H](Cc2ccc(C#N)cc2)O[C@@H](c2ccc(Cl)cc2)[C@H]1c1ccc(Cl)cc1 (relative stereo) |
